PubChem BioAssay AID431 (Sanford-Burnham Center for Chemical Genomics, 2006)
The entries are a selection whose mix differs from that of the whole data set. Measured potencies and affinities stand elsewhere. The source made the active and inactive calls.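 The calls were made as follows: active = compounds whose percent cytotoxicity in the single-dose primary screen, scaled between solvent and toxic-drug controls, exceeds 50; inactive = the rest.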

Assay: cytotoxicity in KRAS-transformed pancreatic duct cells, primary screen, cell-based, fluorescence, HTS (AID 431);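 also: 0% = DMSO solvent wells and 100% = doxorubicin-treated wells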
Conditions: HPDE-C7K KRASV12 cells, Alamar Blue viability, 48 h; at 10 µM; stronger effect = higher value

Row | Structure (SMILES) | cytotoxicity
1 | COc1ccc(NC2CCN(CCc3ccccc3)CC2)c(OC)c1 | inactive: 27.9%
2 | O=C(OC1CN2CCC1CC2)C1c2ccccc2Oc2ccccc21 (stereo unspecified) | inactive: -0.2%
3 | N#CC1(Nc2ccccc2)CCN(CCc2ccccc2)CC1 | inactive: 4%
4 | CCC(CO)(C(=O)OC1CN2CCC1CC2)c1ccccc1 (stereo unspecified) | inactive: -5.1%
5 | CCOc1ncccc1C(=O)NCC1(N2CCOCC2)CCCCC1 | inactive: 10.6%
6 | Fc1ccccc1NC1CCN(Cc2ccccc2)CC1 | inactive: 8.8%
